Test results: ChEMBL document CHEMBL6096726, “Development of a Second-Generation, In Vivo Chemical Probe for PIKfyve” (J Med Chem, 2025)

Assay: in vitro
Conditions: mouse, liver microsomes

| remaining at 0.5 h [%] | Compound |
| --- | --- |
| 70 | CC(O)C#Cc1ccc2[nH]cc(-c3ccnc(N)n3)c2c1 (stereo unspecified) |
| 48 | CC(=O)N(C)CC#Cc1ccc2[nH]cc(-c3ccnc(N)n3)c2c1 |
| 57 | CCC(C)(O)C#Cc1ccc2[nH]nc(-c3ccnc(N)n3)c2c1 (stereo unspecified) |
| 76 | CC(C)(O)C#Cc1ccc2[nH]c(C(C)(C)C)c(-c3ccnc(N)n3)c2c1 |
| 2.3 | CN(C)CC#Cc1ccc2[nH]cc(-c3ccncn3)c2c1 |
| 78 | CC(=O)NCC#Cc1ccc2[nH]cc(-c3ccnc(N)n3)c2c1 |
| 39 | CC(C#Cc1ccc2[nH]cc(-c3ccnc(N)n3)c2c1)N(C)C (stereo unspecified) |
| 69 | CC(O)C#Cc1ccc2[nH]c(C(C)(C)C)c(-c3ccnc(N)n3)c2c1 (stereo unspecified) |
| 46 | CN(C)CC#Cc1ccc2[nH]c(C(C)(C)C)c(-c3ccnc(N)n3)c2c1 |
| 29 | Nc1nccc(-c2c[nH]c3ccc(C#CCN4CCOCC4)cc23)n1 |
| 32 | CN(C)Cc1ccc(-c2ccc3[nH]cc(-c4ccnc(N)n4)c3c2)cc1 |
| 4.5 | Cc1[nH]c2ccc(C#CCN(C)C)cc2c1-c1ccnc(N)n1 |
| 53 | CC(O)C#Cc1ccc2[nH]nc(-c3ccnc(N)n3)c2c1 (stereo unspecified) |
| 39 | CN(C)CCC#Cc1ccc2[nH]cc(-c3ccnc(N)n3)c2c1 |
| 45 | CCC(C)(O)C#Cc1ccc2[nH]c(C(C)(C)C)c(-c3ccnc(N)n3)c2c1 (stereo unspecified) |
| 82 | CC(C)(O)C#Cc1ccc2[nH]cc(-c3ccnc(N)n3)c2c1 |
